Measured values taken from ChEMBL document CHEMBL6096676, “TarIKGC: A Target Identification Tool Using Semantics-Enhanced Knowledge Graph Completion with Application to CDK2 Inhibitor Discovery” (J Med Chem, 2025).
pIC50: −log10 of the molar value.

Experiments:
[1] = Antiproliferative activity against human THLE-2 cells measured after 48 to 72 hrs by CCK-8 method
[2] = system: MKN-28; test: Antiproliferative activity against human MKN-28 cells measured after 48 to 72 hrs by CCK-8 method
[3] = system: PC-9; test: Antiproliferative activity against human PC-9 cells measured after 48 to 72 hrs by CCK-8 method
[4] = system: AGS; test: Antiproliferative activity against human AGS cells measured after 48 to 72 hrs by CCK-8 method
[5] = system: Huh-7; test: Antiproliferative activity against human Huh-7 cells measured after 48 to 72 hrs by CCK-8 method
[6] = system: SW-620; test: Antiproliferative activity against human SW620 cells measured after 48 to 72 hrs by CCK-8 method
[7] = Antiproliferative activity against HEK293T cells measured after 48 to 72 hrs by CCK-8 method; settings: human

Compound | pIC50 [1] | pIC50 [2] | pIC50 [3] | pIC50 [4] | pIC50 [5] | pIC50 [6] | pIC50 [7]
COC(=O)c1cc2oc3ccccc3c2n1CC(=O)Nc1ccc(Br)cc1F | 4.94 | 5.25 | 5.17 | 5.82 | 5.24 | 5.81 | 4.76
NC(=O)c1nc(-c2ccc(Br)cc2)nc2c1[nH]c(=O)n2-c1ccccc1 | – | 5.00 | 4.96 | 5.09 | 5.09 | 4.96 | –
